Source: patent US20040018482A1, “Loading and unloading of permeating protectants for cell, tissue, and organ cryopreservation by vitrification” (priority 1997, published 2004)

Details: maximum freeze dehydrated solution; Tg estimated as temperature of detectable onset of ice melting endotherm

bovine serum albumin [BSA]
vitrification temperature Tg: −20 °C
